{"source": "patent US8329429B2", "about": "“Method of enhancing recombinant protein production” (Induce Biologics Inc., priority 2007, dated 2012)", "test_system": "C2C12 cells", "assay": "C2C12 alkaline phosphatase assay of rhBMP after PreScission digestion", "format": "cell-based", "settings": "for ALP activity (U/μg protein) mean ± SD: n=4", "excerpt": "Alkaline phosphatase induction in C2C12 cells: The activity of recombinant hBMP-2 protein is quantitated based upon induction of alkaline phosphatase in in vitro cultured C2C12 cells, as has been described (see, e.g., Peel et al. J Craniofacial Surg. 2003; 14:284-291 and Hu et al. Growth Factors 2004; 22:29033).\nC2C12 cells (ATCC accession number CRL-1772, Manassas, Va.) are passaged before confluent and resuspended at 0.5×10^5 cells/ml in MEM supplemented with 15% heat-inactivated fetal bovine serum, antibiotics and 50 μg/ml ascorbic acid. One ml of cell suspension is seeded per well of a 24 well tissue culture plate (BD Falcon, Fisher Scientific Cat #08-772-1). An aliquot of test BMP-2 sample is added and the cultures maintained at 37° C. and 5% CO2. Test BMP-2 samples included conditioned media, purified recombinant hBMP-2 isolated from conditioned media by heparin affinity chromatography, and as a positive control a commercially available purified recombinant hBMP-2 (R&D Systems, Minneapolis, USA). Control cultures (cultured in media without added BMP-2 sample) are cultured for 2 to 7 days. Medium is changed every two days.\nAt harvest cultures are rinsed with Tris buffered saline (20 mM Tris, 137 mM NaCl, pH 7.4) and M-Per lysis buffer (Pierce Biotechnology Inc., Rockford, Ill., catalogue #78501) is added. The cell layer is scraped into Eppendorf tubes and sonicated. The lysate is centrifuged at 5000×g at 5° C. for 10 minutes, and the supernatant assayed for alkaline phosphatase (ALP) by monitoring the hydrolysis of nitrophenol phosphate in alkaline buffer (Sigma-Aldrich, St. Louis Mo., catalog P5899) as described in Peel et al. J Craniofacial Surg. 2003; 14:284-291 or by using the Alkaline Phosphatase detection kit, Fluorescence (Sigma-Aldrich, catalogue #APF) according to manufacturer's instructions. To normalize the ALP activity the cellular protein content in each well is also assayed using the Coomasie (Bradford) Protein Assay (Pierce Biotechnology Inc., catalogue #23200). The normalized ALP activity for each sample is calculated by dividing the ALP activity per well by the protein content per well. An activity score is calculated by dividing the ALP activity for each sample by the mean ALP activity of the control and is compared to the score achieved by the positive BMP control.\nPreparation of test materials: PreScission protease was obtained from Amersham Biosciences (GE Healthcare, Buckinghamshire, U.K) and was prepared according to the manufacturer's instructions. Recombinant hBMP-2 and rhBMP-7 (both CHO cell produced) were obtained from R&D Systems. The rhBMP samples were resuspended in 4 mM HCl to a final concentration of 10 μg/ml. Bovine serum albumin (BSA) was not included so that the only substrate for the protease was BMP. The cleavage buffer was prepared (50 mM Tris-HCl, 150 mM NaCl, 1 mM EDTA, pH 7).\nAssessment of activity: Samples underwent digestion at room temperature for 6 hours. Reactions were stopped by freezing at −20° C. Digestion samples were diluted in alpha MEM+15% FBS and tested for BMP activity using the C2C12 assay described in Example 1."}
{"substance": "rhBMP-2: recombinant human BMP-2, CHO cell produced, obtained from R&D Systems", "values": [{"measurement": "ALP activity (U/μg protein) mean ± SD", "setting": "group 2: 20 μl rhBMP (10 μg/ml), no protease, no cleavage buffer (unincubated)", "result": "19.0 ± 2.0", "unit": "U/μg protein"}, {"measurement": "ALP activity (U/μg protein) mean ± SD", "setting": "group 3: 20 μl rhBMP + 15 μl PreScission protease + 165 μl cleavage buffer, room temperature 6 hours", "result": "12.5 ± 1.0", "unit": "U/μg protein"}, {"measurement": "ALP activity (U/μg protein) mean ± SD", "setting": "group 4: 20 μl rhBMP + 180 μl cleavage buffer alone, room temperature 6 hours", "result": "12.0 ± 0.5", "unit": "U/μg protein"}, {"measurement": "activity after PreScission digestion", "setting": "room temperature for 6 hours", "result": "remained active"}, {"measurement": "activity after PreScission digestion compared to control BMP incubated in cleavage buffer alone", "setting": "room temperature for 6 hours", "result": "No loss of activity"}]}
